# Hits are enriched below; roughly 2.1% of the tested compounds scored in any of these assays.
# Yeast UUG start-1: alters start codon recognition fidelity in yeast | S. cerevisiae UUG-firefly luciferase reporter, luminescence/redox ratio | activity score, % at 18.7 µM | hit rate 0.13% among 350,000 | AID 602363;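 active means replicate mean at a twofold rise or more, about +100% in these data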;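 further: firefly luciferase made from a UUG start codon reports start codon fidelity; reporter light over untreated wells divided by growth signal over untreated wells; some hits fall short of that in this replicate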
# GSIS activator: GLuc luminescence reporter in INS-1E cells, primary screen for activators of glucose-dependent secretion of insulin; AID 743287; activation, % at 16.6 µM; 370,000 tested, 0.61% active; INS-1E GLuc reporter insulin secretion, 2-3 h;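 active = lowest replicate activation of at least 40%, so every replicate reaches that level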;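 also: 0% = median of neutral control wells and 100% = median of IBMX positive control wells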
# PDI inh: blocks human protein disulfide isomerase activity; P07237; PDI insulin aggregation turbidity, A650, 90 min; inhibition, % at 10 µM; 350,000 tested, 0.052% active; AID 588391;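 active = mean inhibition across replicates of 30% or more, whatever share of single replicates reach that level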
# Rev-erbA mod: modulates human Rev-erb alpha binding to DNA | P20393 | Rev-erbα–FITC-DNA binding, fluorescence polarization, 90 min | activity, % at 10 µM | 370,000 tested, 0.79% active | AID 1259318;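 active = activity above about 14%, limit read from the data; passing the limit was not always enough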;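 also: 0% = DMSO wells with 35 nM protein and 100% = DMSO wells with 750 nM protein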
# SMARCA2 act: increases SMARCA2 function in MMTV reporter cells | AID 652017 | MG213 cells, MMTV-luciferase reporter, dexamethasone, overnight | 370,000 tested, 1% active | activation, % at 9.1 µM; in the data active = activation above about 7.8%;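 also: 0% = vehicle wells and 100% = reference activator wells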
# ERp5 inh: blocks human ERp5 reductase activity on insulin. Q15084. ERp5 insulin aggregation, absorbance 650 nm, 90 min. inhibition, % at 9.99 µM. 350,000 tested, 0.05% active;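 active = mean replicate inhibition above about 25%, with every replicate also reaching it, limit read from the data, passing the limit was not always enough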
# Yeast UUG start-2: yeast start codon fidelity modulation; shares compounds with Yeast UUG start-1; S. cerevisiae UUG-start firefly luciferase, luminescence, 4 h; 100% means double the DMSO signal; activation, % at 38 µM; 540 tested, under 10 active;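 active = signal increase whose fitted curve reaches an absolute level of 40 at a concentration under 10 µM; inactive = activity opposite to the expected increase, or the rest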
# Active calls of the source: *; i = inactive; / = no result given.
Structure | ERp5 inh | SMARCA2 act | PDI inh | Yeast UUG start-2 | Rev-erbA mod | Yeast UUG start-1 | GSIS activator
Cc1noc(C)c1NC(=O)N(C)C[C@H]1OCCCC[C@@H](C)Oc2ccc(NS(=O)(=O)c3ccc(F)cc3)cc2C(=O)N([C@@H](C)CO)C[C@H]1C | -2 | / | / | / | / | -1 | 11
C[C@H](CO)N1C[C@H](C)[C@@H](CN(C)CC2CCCCC2)OCCCC[C@H](C)Oc2ccc(NS(=O)(=O)c3cn(C)cn3)cc2C1=O | -3 | / | / | i | / | 136* | 5
C[C@H](CO)N1C[C@H](C)[C@H](CN(C)Cc2ccc(C(F)(F)F)cc2)OCCCC[C@H](C)Oc2ccc(NC(=O)Nc3ccc(F)cc3)cc2C1=O | 8 | / | / | i | / | 120* | -3
C[C@H]1CCCCO[C@H](CN(C)C(=O)c2ccccc2)[C@@H](C)CN([C@@H](C)CO)C(=O)c2cc(NC(=O)CCC(F)(F)F)ccc2O1 | -3 | / | / | i | / | 128* | -15
Cc1noc(C)c1NC(=O)N(C)C[C@@H]1OCCCC[C@H](C)Oc2ccc(NS(=O)(=O)c3ccc(F)cc3)cc2C(=O)N([C@@H](C)CO)C[C@@H]1C | -3 | / | / | i | / | 183* | 0
CC(C)NC(=O)Nc1cccc2c1O[C@H](CN(C)Cc1ccc(C(=O)O)cc1)[C@H](C)CN([C@H](C)CO)C2=O | 9 | / | / | i | / | 132* | 7
C[C@H](CO)N1C[C@H](C)[C@H](CN(C)Cc2ccccc2)OCCCC[C@H](C)Oc2ccc(NS(=O)(=O)c3ccc(F)cc3)cc2C1=O | 1 | / | / | i | / | 235* | -17
CCCN(C)C[C@@H]1OCCCC[C@@H](C)Oc2ccc(NS(=O)(=O)c3cccs3)cc2C(=O)N([C@H](C)CO)C[C@@H]1C | -1 | / | / | / | / | -6 | 24
C[C@@H]1CN([C@@H](C)CO)C(=O)c2cccc(NS(=O)(=O)c3ccc(F)cc3)c2O[C@@H]1CN(C)Cc1ccc(Oc2ccccc2)cc1 | / | / | / | / | / | / | -18
C[C@@H]1CN([C@H](C)CO)C(=O)c2cc(NC(=O)Cc3ccccc3)ccc2O[C@H]1CN(C)C(=O)Nc1cccc2ccccc12 | -1 | / | / | / | / | 43 | -15
O=C(CN1CCOCC1)N1CCN(c2ccc([N+](=O)[O-])cc2)CC1 | 9 | -6 | -3 | -6 | 2 | / | 15
O=C(CN1CCN(c2ccc([N+](=O)[O-])cc2Cl)CC1)N1CCOCC1 | 7 | -5 | 4 | / | 8 | 7 | /
CCCC(O)C#Cc1cnc2c(c1)C(=O)N([C@H](C)CO)C[C@H](C)[C@H](CN(C)C(=O)Nc1ccc3c(c1)OCO3)O2 (stereo partly drawn) | -1 | / | / | / | / | / | -18
O=C(Cc1c(F)cccc1Cl)Nc1ccccc1-c1ccccc1 | -1 | -1 | -5 | -7 | 2 | 540* | 8
O=C(Cc1ccccc1F)Nc1ccccc1-c1ccccc1 | 1 | 8 | -4 | / | 0 | / | 20
CC(=O)c1c(C)[nH]c(C)c1C(C)=O | / | -2 | 0 | / | -1 | -1 | /
CCc1[nH]c(C)c(C(C)=O)c1C | / | -4 | -3 | 4 | -3 | 416* | /
O=C(Nc1ccc(F)cc1)N1CC(=O)N2[C@H](CO)[C@H](c3ccc(-c4ccccc4)cc3)[C@H]2C1 | 3 | / | / | / | / | / | -5
Cc1ccc(-n2c(C)nn(CC#N)c2=O)cc1 | 1 | -3 | -16 | -1 | -1 | 346* | 21
Cc1nn(CC#N)c(=O)n1-c1ccccc1F | / | -5 | -2 | / | 0 | -19 | /

# Molecules from the list above that have a cyano group:
Structure | ERp5 inh | SMARCA2 act | PDI inh | Yeast UUG start-2 | Rev-erbA mod | Yeast UUG start-1 | GSIS activator
Cc1ccc(-n2c(C)nn(CC#N)c2=O)cc1 | 1 | -3 | -16 | -1 | -1 | 346* | 21
Cc1nn(CC#N)c(=O)n1-c1ccccc1F | / | -5 | -2 | / | 0 | -19 | /

# Further records follow.
Structure | ERp5 inh | SMARCA2 act | PDI inh | Yeast UUG start-2 | Rev-erbA mod | Yeast UUG start-1 | GSIS activator
CCOC(=O)CSc1nc2ccccc2c(=O)n1Cc1ccco1 | -1 | 3 | -3 | / | 1 | 4 | 4
COCCn1c(SCC(=O)c2cc(C)n(C)c2C)nc2ccccc2c1=O | -2 | 6 | 11 | -2 | 1 | / | 14
O=C(CSc1nc2ccccc2c(=O)n1Cc1ccco1)c1ccccc1 | / | -2 | 0 | 2 | 1 | -17 | /
Cc1cc(-n2c(C)cc(C(=O)CSc3nc4ccccc4c(=O)n3Cc3ccco3)c2C)no1 | / | 2 | -1 | 1 | 1 | 685* | /
COCCn1c(SCC(=O)NC(=O)Cc2ccccc2)nc2ccccc2c1=O | -5 | -1 | -6 | / | -3 | -14 | 32
CN1c2ccc(-c3ccccc3F)cc2[C@@H]2[C@@H](CCN2C(=O)NC2CCCCC2)[C@H]1CO | 0 | / | / | / | / | / | -9
N/C(=N\S(=O)(=O)c1ccc(Cl)s1)c1ccccc1 | / | 0 | 3 | -2 | -1 | 117* | /

# Exported with two lines to a compound: part of the list above
# Values run as follows: ERp5 inh, SMARCA2 act, PDI inh, Yeast UUG start-2, Rev-erbA mod, Yeast UUG start-1, GSIS activator
- CN1c2ccc(-c3ccccc3F)cc2[C@@H]2[C@@H](CCN2C(=O)NC2CCCCC2)[C@H]1CO
    0, /, /, /, /, /, -9
- N/C(=N\S(=O)(=O)c1ccc(Cl)s1)c1ccccc1
    /, 0, 3, -2, -1, 117*, /

# From PubChem BioAssay
